One molecule from doi:10.1101/2023.02.06.527244 (bioRxiv, 2023) can be followed below.

The target of the assay is T1, syntaxin 3 (aa 1-260), cytoplasmic domain (rat (Rattus norvegicus), UniProt Q08849 1-260).
T1 sequence (looked up): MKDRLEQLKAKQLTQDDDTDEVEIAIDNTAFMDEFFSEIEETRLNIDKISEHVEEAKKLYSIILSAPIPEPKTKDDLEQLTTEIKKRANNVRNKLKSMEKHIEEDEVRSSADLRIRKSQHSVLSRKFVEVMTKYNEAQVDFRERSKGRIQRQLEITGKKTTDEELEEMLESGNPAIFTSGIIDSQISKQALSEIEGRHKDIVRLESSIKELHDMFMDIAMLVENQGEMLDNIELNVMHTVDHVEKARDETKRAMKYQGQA
The experiment in a line: SDS-resistant complex on SDS-PAGE.

B1: synaptobrevin-2 (Syb2([…])), cytoplasmic domain (domain or fragment)
chain: not shown
Turning to B1, the binding result was “binds”.
